In US20090325944A1, “Methods and Compositions for Modulating Glycosylation” (priority 2006, published 2009):

Columns and labels:
sOGT [1] = target: T1, sOGT (Homo sapiens, UniProt O15294); assay: Radiometric secondary assay: transfer of UDP-14C-GlcNAc to peptide SEQ ID NO:2 by sOGT; type: biochemical; details: known peptide substrate held constant, UDP-GlcNAc 0.5-60 μM
T1 construct: ncOGT and sOGT are identical to known splice variants; His8 (C); made in house; host or cells: E. coli BL21(DE3)
T1 sequence (O15294 1-665 isoform O15294-4): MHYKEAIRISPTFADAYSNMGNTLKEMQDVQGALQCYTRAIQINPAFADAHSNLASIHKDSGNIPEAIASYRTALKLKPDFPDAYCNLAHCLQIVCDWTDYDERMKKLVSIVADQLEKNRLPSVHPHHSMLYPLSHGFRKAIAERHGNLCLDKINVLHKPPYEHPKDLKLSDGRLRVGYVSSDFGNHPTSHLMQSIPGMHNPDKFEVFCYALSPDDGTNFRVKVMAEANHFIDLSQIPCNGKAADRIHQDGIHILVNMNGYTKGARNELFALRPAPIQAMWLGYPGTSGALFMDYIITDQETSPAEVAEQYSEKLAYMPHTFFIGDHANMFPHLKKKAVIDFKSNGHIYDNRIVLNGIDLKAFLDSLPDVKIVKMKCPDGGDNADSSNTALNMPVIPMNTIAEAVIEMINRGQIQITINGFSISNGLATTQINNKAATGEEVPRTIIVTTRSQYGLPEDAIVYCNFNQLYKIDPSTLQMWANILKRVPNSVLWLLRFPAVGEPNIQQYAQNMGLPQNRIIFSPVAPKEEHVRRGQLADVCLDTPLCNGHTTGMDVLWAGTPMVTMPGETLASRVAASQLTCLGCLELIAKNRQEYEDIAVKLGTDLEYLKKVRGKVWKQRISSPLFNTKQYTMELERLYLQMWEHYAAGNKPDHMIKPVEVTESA
Description: The peptide assay was performed as described herein (see procedure for the Secondary assay below), and the Km of UDP-GlcNAc and Kcat were determined by varying the UDP-GlcNAc concentration from 0.5 μM to 60 μM while holding the peptide (SEQ ID NO:2) constant. Nup62 was expressed and purified as previously described by Hanover and co-workers (Lubas, W. A.; Smith, M.; Starr, C. M.; Hanover, J. A.; Biochemistry, 1995, 34, (5), 1686-94) and was stored in 2 M urea at −80° C. […] The nup62 reactions were run for 15-30 minutes, spotted on Whatman MM filter paper, washed with 3×10% TCA for 5 minutes, washed with acetone for 5 minutes, and then counted by liquid scintillation counting. […]
One microliter aliquots (5 mg/nL) of the hits were obtained from the ICCB, and these were normalized to 1.0 mM with DMSO. These compounds were screened at 25 μM in a reaction mixture containing 500 μM peptide (SEQ ID NO:2), 6.25 μM UDP-^14C-GlcNAc, ˜20-40 nM sOGT, and buffer (125 mM NaCl, 1 mM EDTA, 20 mM potassium phosphate, pH=7.4, and 500 μM tris(hydroxypropyl)phosphine. Reactions were spotted on Whatman P81 phosphocellulose discs, washed three times for five minutes in 1% phosphoric acid, and counted by liquid scintillation counting. […]

sOGT [2] = target: T1, sOGT; assay: Fluorescence polarization displacement of probe 3 from sOGT (validation with UDP and UDP-GlcNAc); type: binding
Description: 20 μL of this solution is transferred to wells of a 384-well microplate. […] Fluorescence polarization was measured using a Perkin Elmer Envision® microplate reader. Bach series was performed in triplicate and the average of each data point was converted from mP to anisotropy then fitted to the following equation:
[L]0=(KD(Amax−A)/Kd(A−Amin)+1)([E]0−Kd(A−Amin)/(Amax−A)−[t]0(A−Amin)/(Amax−Amin)) eq 3
where A=measured anisotropy at a particular total concentration of ligand (L), sOGT (E) and probe 3 (t), Amin=minimum polarization (i.e., anisotropy of free probe), Amax=final anisotropy (i.e., anisotropy of probe 3 bound entirely to sOGT), KD=dissociation constant of the ligand, Kd=dissociation constant of the probe 3.

uridine diphosphate N-acetylglucosamine [UDP-GlcNAc]
Km (sOGT [1]): 6.7 ± 0.5 µM
Kd (sOGT [2]; 50 nM probe 3, 1.5 μM sOGT, ligand 50 μM to 98 nM, read-out: KD (dissociation constant) from displacement of probe 3 from sOGT): 1.5 ± 0.4 µM
extent of displacement of probe 3 from sOGT (sOGT [2]; at high concentrations of ligand): completely displaced probe 3 from sOGT
